For one assay, the target named is Jak2 tyrosine kinase (Homo sapiens (Human), UniProt O60674). In words: Jak2 Tyrosine Kinase Assay. The format is biochemical. The following applies: selectivity: Jak2 IC50 divided by Btk IC50.
The test system of assay [1] is CD69 expression on B cells in human whole blood. Briefly: Whole Blood Assay of BCR-Stimulated CD69 Expression on B Cells. The format is cell-based. The following applies: B-cell.

Amino acid sequences for entries named in this document (tags omitted). A change or cut given only in a name is not applied to a line headed by its entry.
UniProt O60674: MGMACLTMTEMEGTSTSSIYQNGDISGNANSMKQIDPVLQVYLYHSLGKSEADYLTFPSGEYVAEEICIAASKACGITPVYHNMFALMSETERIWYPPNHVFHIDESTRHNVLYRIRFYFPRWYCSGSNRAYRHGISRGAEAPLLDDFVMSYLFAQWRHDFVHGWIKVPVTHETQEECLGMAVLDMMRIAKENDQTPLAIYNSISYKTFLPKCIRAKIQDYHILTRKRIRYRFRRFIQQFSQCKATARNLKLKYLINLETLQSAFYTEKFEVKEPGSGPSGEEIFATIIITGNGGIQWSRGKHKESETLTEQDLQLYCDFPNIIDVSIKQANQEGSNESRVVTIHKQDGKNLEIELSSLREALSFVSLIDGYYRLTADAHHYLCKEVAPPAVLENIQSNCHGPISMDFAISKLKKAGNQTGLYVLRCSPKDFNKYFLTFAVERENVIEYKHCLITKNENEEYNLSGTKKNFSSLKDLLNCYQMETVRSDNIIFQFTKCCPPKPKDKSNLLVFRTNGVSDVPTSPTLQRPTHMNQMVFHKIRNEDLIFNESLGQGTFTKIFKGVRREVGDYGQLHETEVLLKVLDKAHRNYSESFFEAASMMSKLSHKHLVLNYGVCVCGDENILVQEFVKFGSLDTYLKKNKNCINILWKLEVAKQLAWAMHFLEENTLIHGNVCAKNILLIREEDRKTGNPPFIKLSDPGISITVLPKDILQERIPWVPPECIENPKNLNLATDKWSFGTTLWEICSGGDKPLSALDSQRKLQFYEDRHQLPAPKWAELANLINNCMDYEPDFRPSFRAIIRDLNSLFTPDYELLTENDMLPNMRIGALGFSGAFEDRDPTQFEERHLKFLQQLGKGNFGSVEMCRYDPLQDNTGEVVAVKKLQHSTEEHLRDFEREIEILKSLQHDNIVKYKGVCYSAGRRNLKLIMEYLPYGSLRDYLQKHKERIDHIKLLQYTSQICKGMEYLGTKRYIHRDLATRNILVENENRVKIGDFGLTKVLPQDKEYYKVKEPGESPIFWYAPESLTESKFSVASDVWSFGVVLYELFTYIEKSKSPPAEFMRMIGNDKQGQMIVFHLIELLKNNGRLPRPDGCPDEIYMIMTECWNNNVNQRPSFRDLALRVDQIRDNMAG

Bounds are passed on as bounds.

Consider four compounds from patent US10106559B2, “Substituted tetrahydrocarbazole and carbazole carboxamide compounds” (BRISTOL-MYERS SQUIBB COMPANY, priority 2013, dated 2018).

For orientation: IC50 means the concentration that gives 50% inhibition. The low end stands for greater potency in that assay, the high end for weaker potency in that assay.

On to `Cc1c(-c2c(Cl)cc(C(N)=O)c3[nH]c4c(c23)CC[C@H](C(C)(C)O)C4)cccc1-n1c(=O)c2cccc(F)c2n(C)c1=O` (atropisomer, axis not shown) [Example 26, 6-Chloro-5-(R)-(3-(S)-(8-fluoro-1-methyl-2,4-dioxo-1,2-dihydroquinazolin-3(4H)-yl)-2-methylphenyl)-2-(S)-(2-hydroxypropan-2-yl)-2,3,4,9-tetrahydro-1H-carbazole-8-carboxamide], for which, at Jak2 tyrosine kinase, the “Ratio of Jak2/Btk IC50 values” worked out at 6300.

As to `Cc1c(-c2c(F)cc(C(N)=O)c3[nH]c4c(c23)CC[C@@H](C(C)(C)O)C4)cccc1-n1c(=O)c2cccc(F)c2n(C)c1=O` (atropisomer, axis not shown) [Example 27, 6-Fluoro-5-(R)-(3-(S)-(8-fluoro-1-methyl-2,4-dioxo-1,2-dihydroquinazolin-3(4H)-yl)-2-methylphenyl)-2-(R)-(2-hydroxypropan-2-yl)-2,3,4,9-tetrahydro-1H-carbazole-8-carboxamide], on Jak2 tyrosine kinase, the “Ratio of Jak2/Btk IC50 values” is on record as more than 910.

As to `Cc1c(-c2c(C#N)cc(C(N)=O)c3[nH]c4cc(C(C)(C)O)ccc4c23)cccc1-n1c(=O)c2cccc(F)c2n(C)c1=O` (single isomer, unassigned) [Example 16], the “Ratio of Jak2/Btk IC50 values” on Jak2 tyrosine kinase is recorded as 7000.

As for `[2H]C([2H])([2H])n1c(=O)n(-c2cccc(-c3c(Cl)cc(C(N)=O)c4[nH]c5c(c34)CC[C@H](C(C)(C)O)C5)c2C)c(=O)c2cccc(F)c21` (single isomer, unassigned) [Example 58], the “Ratio of Jak2/Btk IC50 values” at Jak2 tyrosine kinase amounted to 15000. For the same compound, the IC50 in assay [1] turned out to be 240 nM.
